Results published in US20220267379A1, “NOVEL INHIBITORS OF […] AND USES THEREOF” (Ecole Polytechnique Federale de Lausanne (EPFL), priority 2019, published 2022).

Chains of the proteins cited; added tags and fusions are not shown. Residues count along the entry.
human Kallikrein-related peptidase 5 (hKLK5) (human), Q9Y337, UniProt Q9Y337, 67-293: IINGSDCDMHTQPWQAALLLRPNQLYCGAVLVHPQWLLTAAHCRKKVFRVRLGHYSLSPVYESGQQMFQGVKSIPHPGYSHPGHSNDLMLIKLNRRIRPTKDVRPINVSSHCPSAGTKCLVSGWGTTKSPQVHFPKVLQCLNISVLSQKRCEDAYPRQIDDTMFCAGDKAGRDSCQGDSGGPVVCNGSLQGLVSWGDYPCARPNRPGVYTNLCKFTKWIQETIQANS

What was measured:
[1] = molecular target: T1, human Kallikrein-related peptidase 5 (hKLK5) (human), Q9Y337; experiment: enzyme inhibition; pyridine linker; conditions: modification not given
[2] = molecular target: T1, human Kallikrein-related peptidase 5 …; experiment: enzyme inhibition; 1,3-dibromoacetone linker; conditions: modification not given

Ki [1] | Ki [2] | Binder
29 nM | – | GCTRQWC [028]
– | 28 nM | ACTREYNPQCANPQCLCH [005]
– | 24 nM | MCSRQWDPSLCCPQRTCP [006]
